This is one part of the list. Inconclusive results are not listed. Activity calls are given as the source filed them. Cut-off read from the data, not from the text of the source: active = max dye-equivalent concentration above about 10 nM; inconclusive = between about 1.1 nM and that limit; inactive = weaker than that.
Experiment: qHTS Assay for Spectroscopic Profiling in Texas Red Spectral Region
Settings: Compound fluorescence, Texas Red channel, 547/618 nm
Description: NIH Molecular Libraries Screening Centers Network [MLSCN] NIH Chemical Genomics Center [NCGC] […] Occasionally, the artifactual effect may originate from the compound#s own spectral or other biophysical properties which generally tend to track its assay concentration. Pre-screening/profiling the library with respect to the compounds# spectral properties should help one exclude false positives early on. While the most informative fluorescent profiling data set is obtained by performing a full excitation and emission scan of each well by using a monochromator-based plate reader, such an approach is practical only on a very limited scale as scanning each well requires long time. An alternative approach, applied here, is to perform plate reader scans using selected excitation and emission wavelength pairs to generate a multidimensional relational database that correlates compound concentration and the respective relative fluorescence intensity at a given wavelength set. A standard curve of Texas Red (TR) present on each plate as six-point concentration series, was used to compute a normalized fluorescence response, termed dye-equivalent concentration, for each compound at each concentration.
NCGC Assay Protocol Summary: Buffer: 100 mM Tris buffer, pH 8.0 Dye standard plate: The wells in columns 1 through 4 of a Kalypsys polypropylene 1536-well compound plate were filled with standard solutions of fluorophore corresponding to the spectral region of interest. Solutions of TR were placed in the following wells: U1, V1: 3 mM, U2, V2: 300 uM, U3, V3: 30 uM, U4, V4: zero (DMSO), W1, X1: 3 uM, W2, X2: 900 nM, W3, X3: 300 nM, W4, X4: zero (DMSO). Assay Steps: Six uL of buffer were dispensed to 1536-well Greiner black plates. Compounds and dye standards (23 nL) were transferred via Kalypsys PinTool. The plates were incubated for 15 min at room temperature, and then read on ViewLux (Perkin-Elmer) High-throughput CCD imager using 547 nm and 618 nm excitation and emission filter set. Keywords: NIH Roadmap, MLSCN, MLI, MLSMR, qHTS, NCGC, Texas Red, Fluorescent Profiling.
With `Cc1nn(-c2ccccc2)c2c1P(=O)(N1CCOCC1)N(C)C(c1ccccc1)=N2` (stereo not given) the outcome was “inactive”. For `O=P1(Nc2ccc(Br)cn2)COc2ccccc2OC1`, the outcome was “inactive”. For `Cc1ccc(OCC(=O)OC2CN3CCC2CC3)cc1` (stereo not given), the outcome was “inactive”. For `CN(CCCl)Cc1cc(Cl)c(NC2=NCCN2)c(Cl)c1`, the outcome was “inactive”. For `O=P1(Nc2ccccn2)COc2ccccc2OC1`, the outcome was “inactive”. For `Clc1n[nH]nc1-c1nn[nH][15n]1`, the outcome was “inactive”. With `Cc1nc2ccc3ccccc3c2s1.O=[N+]([O-])c1cc([N+](=O)[O-])c(O)c([N+](=O)[O-])c1` the outcome was “inactive”. For `CN(C(=O)Cc1ccc(Cl)c(Cl)c1)[C@@H]1CCCC[C@H]1N1CCCC1`, the outcome was “inactive”. With `Cc1cccc(OCC(=O)OC2CN3CCC2CC3)c1` (stereo not given) the outcome was “inactive”. With `O=C(CC(=O)c1ccccc1)O[C@H]1CN2CCC1CC2` the outcome was “inactive”. With `NS(=O)(=O)Cc1ccc([As](=O)(O)O)cc1` the outcome was “inactive”. In the case of `O=P(Nc1nccs1)(c1ccccc1)c1nc2ccccc2s1` (stereo not given), the outcome is reported as “inactive”. In the case of `CCOP1(=S)c2c(C)nn(CCC#N)c2N=C(c2ccc(F)cc2)N1C` (stereo not given), the outcome is reported as “inactive”. For `COc1ccccc1OP(C)(=O)Nc1ccc(C)cc1` (stereo not given), the outcome was “inactive”. With `[N-]=[N+]=NCC(N)=O` the outcome was “inactive”. For `O=[As]c1ccc(S(=O)(=O)NCCO)cc1` (stereo not given), the outcome was “inactive”. In the case of `O=C(OC1CN2CCC1CC2)C12CC3CC(CC(C3)C1)C2` (stereo not given), the outcome is reported as “inactive”. In the case of `NC(=O)Nc1cc([As](=O)(O)O)cc(I)c1O`, the outcome is reported as “inactive”. With `CP(=O)(NC(=O)Nc1ccccc1)Oc1ccccc1` (stereo not given) the outcome was “inactive”. With `O=C(COc1ccccc1)OC1CN2CCC1CC2` (stereo not given) the outcome was “inactive”. For `N1=C(c2nnc(-c3nn[nH]n3)nn2)NNN1`, the outcome was “inactive”. In the case of `CP(=S)(Nn1cnnc1)Oc1ccccc1` (stereo not given), the outcome is reported as “inactive”. In the case of `CN(C(=O)Cc1ccccc1)[C@@H]1CC[C@@]2(CCCO2)C[C@H]1N1CCCC1`, the outcome is reported as “inactive”. With `C/C1=C2N=C(/C=C3N=C(/C(C)=C4\[N-][C@@](C)([C@H]5N=C1[C@@](C)(CCC(=O)NC[C@H](C)OP(=O)([O-])O[C@@H]1[C@H](O)[C@H](n6cnc7cc(C)c(C)cc76)O[C@@H]1CO)[C@@H]5CC(N)=O)[C@](C)(CC(N)=O)[C@H]4CCC(N)=O)[C@@](C)(CC(N)=O)[C@@H]\3CCC(N)=O)C(C)(C)[C@@H]/2CCC(N)=O.[C-]#N.[Co+3]` the outcome was “inactive”. For `CCN(CC)CC(O)COC(=O)C(O)(c1ccccc1)C1CCCCC1` (stereo not given), the outcome was “inactive”. For `N#[O+].[C-]#N.[C-]#N.[C-]#N.[C-]#N.[C-]#N.[Fe+2].[Na+].[Na+]`, the outcome was “inactive”. With `COc1ccccc1OP(C)(=O)Nc1c(C)n(C)n(-c2ccccc2)c1=O` (stereo not given) the outcome was “inactive”. For `CCc1nc2c(n1)c1c(non1O)c1c2no[n+]1[O-]`, the outcome was “inactive”. For `O=[N+]([O-])c1ccc(C[As](=O)(O)O)cc1`, the outcome was “inactive”. In the case of `NCC[C@@H](N)CSP(=O)(O)O`, the outcome is reported as “inactive”. For `Cc1nc2ccc3ccccc3c2o1.O=[N+]([O-])c1cc([N+](=O)[O-])c(O)c([N+](=O)[O-])c1`, the outcome was “inactive”. With `[N-]=[N+]=NCC(O)CN=[N+]=[N-]` (stereo not given) the outcome was “inactive”. In the case of `C(Cc1nn[nH]n1)c1nn[nH]n1`, the outcome is reported as “inactive”. For `COC(=O)c1cc2c(s1)N=C(c1ccccc1)N(C)P2(=O)N1CCOCC1` (stereo not given), the outcome was “inactive”. With `O=P1(Nc2nc3ccc(Cl)cc3s2)COc2ccccc2O1` (stereo not given) the outcome was “inactive”. For `CP(=O)(Nc1ccccc1F)Oc1ccccc1` (stereo not given), the outcome was “inactive”. With `O=P(Nc1nccs1)(c1ccccc1)c1ccccc1` the outcome was “inactive”. In the case of `CCOP(C)(=S)SCC(=O)NC(C)(CC)C(=O)O` (stereo not given), the outcome is reported as “inactive”. With `c1nnnn1CCn1cnnn1` the outcome was “inactive”. For `CN1CCC[C@H](OC(=O)C(c2ccccc2)c2ccccc2)C1`, the outcome was “inactive”. With `C[C@@H](O)COc1ccc([As](=O)(O)O)cc1N` the outcome was “inactive”. In the case of `Cc1ccccc1NP(C)(=O)Nc1ccccc1C`, the outcome is reported as “inactive”. In the case of `NNC(NN)NN.n1nc(-c2nn[nH]n2)n[nH]1`, the outcome is reported as “inactive”. For `CN(C)CCOC(=O)C(O)(c1ccccc1)C1CCCCC1` (stereo not given), the outcome was “inactive”. In the case of `[N-]=[N+]=Nc1ccc([As](=O)(O)O)cc1`, the outcome is reported as “inactive”.
